{
  "source": "ChEMBL document CHEMBL1132276",
  "about": "“Development of predictive retention-activity relationship models of tricyclic antidepressants by micellar liquid chromatography” (J Med Chem, 1999)",
  "target": "Serotonin (5-HT) receptor",
  "assay": "Compound was tested for its inhibitory activity against 5-hydroxytryptamine receptor",
  "type": "protein assay, Rattus norvegicus",
  "data": [
    {"smiles": "CNCCC=C1c2ccccc2CCc2ccccc21", "note": "[NORTRIPTYLINE]", "values": [
      {"measurement": "IC50", "result": 170, "unit": "nM"}
    ]}
  ]
}
